{"sequences": {"note": "Amino acid sequences for entries named in this document (tags omitted). Residues count along the entry.", "UniProt P53634, 395-463 limits assumed": "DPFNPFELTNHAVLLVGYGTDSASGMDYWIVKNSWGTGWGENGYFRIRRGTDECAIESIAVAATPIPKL", "UniProt P53634, 25-143 limits assumed": "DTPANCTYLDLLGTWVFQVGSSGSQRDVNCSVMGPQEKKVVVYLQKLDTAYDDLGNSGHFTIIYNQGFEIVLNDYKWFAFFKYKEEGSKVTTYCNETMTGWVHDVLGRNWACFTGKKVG", "UniProt P53634, 231-394 limits assumed": "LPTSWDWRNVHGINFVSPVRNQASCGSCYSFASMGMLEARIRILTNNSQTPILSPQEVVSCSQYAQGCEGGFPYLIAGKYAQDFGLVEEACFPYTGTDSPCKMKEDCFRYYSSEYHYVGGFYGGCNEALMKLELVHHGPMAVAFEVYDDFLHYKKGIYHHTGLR"}, "source": "patent US20070155803A1", "about": "“Protease inhibitors” (ProZymex A/S, priority 2003, published 2007)", "target": "T1, Human DPP-I (Homo sapiens, UniProt P53634)", "T1 construct": "purchased UniZyme A/S", "experiment": "Human Dipeptidyl Peptidase I (DPP-I) assay, AFC substrate", "format": "biochemical", "method": "Human Dipeptidyl Peptidase I (DPP-I) Assay\nUsing this assay, the IC50 value of a compound of the invention as a DPP-I inhibitor was determined using an AFC substrate.\n100 mM sodium phosphate (8.9 g Na2HPO4; M=177.99), 150 mM KCl (5.6 g KCl; M=74.6) and 1.5 mM EDTA (279 mg EDTA; M=372.2) was dissolved in 500 mL H2O, and pH was adjusted to 6.0. Cysteine*HCl (Sigma C-1276; M=157.6), 1 mg/mL assay buffer, corresponding to 6 mM, was added to the solution for activation of the DPP-I enzyme.\nGly-Phe-AFC*TFA (Enzyme Systems Products AFC-033) was used as the substrate for determination of IC50 values. Km was 270 μM. The substrate was solubilized in DMSO to give a 7.5 mM stock solution (2.2 mg of substrate was added to 0.5 mL DMSO).\nHuman DPP-I (hDDP-I; obtained from UniZyme A/S, DK-2970 Horsholm, Denmark) was stored at −20° C. in a buffer containing 2.5 mM Na-phosphate, 150 mM NaCl, 2 mM cysteamine, 50% glycerol, pH 7.0 at a concentration of 2.5 mg/mL. This stock solution was diluted 200 times in the assay buffer.\nTh assay was performed in 96-well plates. […] The excitation wavelength was 400 nm, and the emission was measured at 505 nm for 10 minutes at 37° C. […] In the software (SOFTmax Pro) used for data collection from the fluorometer (Molecular Devices: Gemini XS), it was erisured that the measured slopes were linear (R^2>0.99). […]"}
{"molecule": "CC[C@H](N)C(=O)NNC(=O)N[C@@H](CCc1ccccc1)C(=O)N[C@@H](Cc1cccc(F)c1)C(N)=O", "note": "[Example 11, 1-(2S-2-Aminobutanoyl)-4-[2S-N-[2S-3-(m-fluorophenyl)propan-2-yl-amide]-4-phenylbutan-2-yl-amide]semicarbazide]", "values": [{"measurement": "Selective inhibition of DPP-I (in words)", "result": "selectively inhibit DPP-I"}]}
